{"source": "PubChem BioAssay AID575", "about": "(SRMLSC, 2007)", "note": "This is a selection; strong and weak results do not stand in their true shares. Some of these compounds have results that are not shown, active ones among them. Activity calls are given as the source filed them.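 Rule for the calls: active = viability at or below 30% in both replicate assays; inconclusive = viability at or below 30% in just one of the two assays; inactive = the rest.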", "data": [{"experiment": "HUVEC growth inhibition – cell-based, human, primary screen (AID 575);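 note: 100% = median of untreated cell wells with 0.1% DMSO on each plate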", "settings": "HUVEC proliferation, CellTiter-Glo luminescence, 72 h; at 10 µM; stronger effect = lower value", "in_short": "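System: primary human umbilical vein endothelial cells; Quantity: 1250 endothelial cells in each well; Buffer or medium: supplemented EBM, 2% fetal bovine serum; Doses: one dose, 10 µM final, 0.1% DMSO; Incubation: 72 h compound incubation; Technique: ATP-based CellTiter-Glo luminescent read; Evaluation: percent of median DMSO-control luminescence; Controls: vehicle and MePR control wells.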", "values": [{"smiles": "O=C(OC1CN2CCC1CC2)C(CO)(c1ccccc1)c1ccccc1", "note": "(stereo unspecified)", "viability": "inactive: 103%"}]}]}
